The values that follow come from patent publication US20260158160A1.

For assay [1], the target named is human C1q (human) (UniProt P02745). In words: flow cytometry, serum C1q on SK-OV-3 cells opsonised with the mixture.
Assay [2] has the same target. The assay can be described thus: flow cytometry, serum C1q on opsonised SK-OV-3 cells, 1.25 µg/ml of each mAb. On the technique in general: Flow cytometry measures light scatter and fluorescence of single cells or particles in a stream.

For the substance “1:1 mixture of trastuzumab-H429F and pertuzumab-H429F”, the MFI of C1q binding with human C1q (human) [1] was found to be 10900 MFI; with human C1q (human) [2] it was 6330 MFI.
In the case of “1:1 mixture of trastuzumab-WT and pertuzumab-WT”, the MFI of C1q binding with human C1q (human) [2] worked out at 522 MFI.
